From patent publication US10117854B2, “Method for treating hepatic encephalopathy” (MEDDAY PHARMACEUTICALS, priority 2016, dated 2018)

Tested on: BDL rats
Test: Open Field Test (behavioral test of hepatic encephalopathy)
Type: in vivo, rat
Details: biotin 300 mg/kg of food, compared to Sham rats
Method: Bile duct ligation (BDL) was used as a biliary cirrhosis model. All rats oh this group were operated on. They were randomly separated in two groups: BDL or simple laparotomy (SHAM, control-group). The BDL procedure was conducted as described previously (Kountouras J, Prolonged bile duct obstruction: a new experimental model for cirrhosis in the rat; Br J Exp Pathol 1984) and as controlled in our lab. Surgery was done under total anesthesia with […] isofluran (Aerrane, Baxter Maurepas) 3% mixed with air. Analgesia was done by sub-cutaneous injection of buprenorphin 2% (Buprécare 0.3 mg/ml, Axience) immediately before and after surgery. Rifaximin (Sigma Aldrich) was mixed with water at the dose of 50 mg/kg/d and began 3 days after the surgery. […] To assess the hepatic encephalopathy, the Open Field Test (BioSeb) was used, a behavioral test validated in BDL rats to explore neurological impairments (Leke, Plos One 2012; 7(5)). The test was done the day of sacrifice, in standardized experimental conditions (hour, place, light, noise). […] The data analyzed after 6 minutes of experiments were: total distance travelled (cm), time of mobility (s), speed (cm/s), number of zone changes, distance travelled in the center and periphery zone, time spent in the center and periphery zone, number of rearing, total duration of rearing.

Compound: O=C(O)CCCC[C@@H]1SC[C@@H]2NC(=O)N[C@@H]21 [biotin]
- total distance travelled, mean speed and duration of activity (OpenField): almost normalized
